Results from patent US20050148631A1, “Amino heterocyclyl inhibitors of 11-beta-hydroxy steroid dehydrogenase type 1” (AGOURON PHARMACEUTICALS, INC., priority 2003, published 2005).

The chains behind the UniProt entries cited, without tags or fusion partners.
UniProt P28845, whole entry: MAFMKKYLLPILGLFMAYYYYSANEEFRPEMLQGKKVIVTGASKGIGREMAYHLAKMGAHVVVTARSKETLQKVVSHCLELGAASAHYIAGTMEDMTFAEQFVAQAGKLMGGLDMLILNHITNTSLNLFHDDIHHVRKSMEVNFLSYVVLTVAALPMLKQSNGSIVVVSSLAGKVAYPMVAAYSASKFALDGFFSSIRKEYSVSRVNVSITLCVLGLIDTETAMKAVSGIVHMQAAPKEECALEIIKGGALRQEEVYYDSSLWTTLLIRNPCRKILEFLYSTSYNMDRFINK

Legend:
[1] = target: T1, 11β-hsd-1 enzyme (Homo sapiens, UniProt P28845); test: 11β-hsd-1 enzyme assay, Kiapp determination (3H-cortisone to cortisol, radio-HPLC); type: biochemical; details: read-out: Ki app
[2] = target: T1, 11β-hsd-1 enzyme; test: 11β-hsd-1 enzyme assay, percentage of inhibition (3H-cortisone to cortisol, radio-HPLC); type: biochemical

| SMILES | Ki [1] [nM] | % inh @ 0.1 uM [2] [%] |
| --- | --- | --- |
| Cc1cccc(NS(=O)(=O)c2sc(-c3ccccc3)cc2C)n1 | 32.8 | 76.3 |
| Nc1cccc(NS(=O)(=O)c2ccc3c(Cl)cccc3c2)n1 | < 1 | 100 |
